This note sets out measurements from patent publication US20050239874A1, “Novel analgesic and immunomodulatory cannabinoids” (University of Connecticut, priority 1998, published 2005).

By UniProt entry, the sequences of proteins in these tests, tags left out.
UniProt P20272, whole entry: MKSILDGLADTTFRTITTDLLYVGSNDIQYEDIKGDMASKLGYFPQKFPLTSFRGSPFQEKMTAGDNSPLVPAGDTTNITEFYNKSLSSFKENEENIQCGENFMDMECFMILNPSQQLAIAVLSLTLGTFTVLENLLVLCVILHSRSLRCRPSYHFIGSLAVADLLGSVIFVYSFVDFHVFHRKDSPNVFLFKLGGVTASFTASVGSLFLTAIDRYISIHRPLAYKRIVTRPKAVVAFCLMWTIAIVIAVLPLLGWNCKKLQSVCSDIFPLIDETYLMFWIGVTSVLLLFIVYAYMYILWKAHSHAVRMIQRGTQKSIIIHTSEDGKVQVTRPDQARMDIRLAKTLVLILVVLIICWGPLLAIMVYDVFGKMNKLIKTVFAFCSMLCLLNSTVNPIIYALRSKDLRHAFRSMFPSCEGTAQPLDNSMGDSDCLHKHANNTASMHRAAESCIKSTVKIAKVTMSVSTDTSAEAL
UniProt P47936, whole entry: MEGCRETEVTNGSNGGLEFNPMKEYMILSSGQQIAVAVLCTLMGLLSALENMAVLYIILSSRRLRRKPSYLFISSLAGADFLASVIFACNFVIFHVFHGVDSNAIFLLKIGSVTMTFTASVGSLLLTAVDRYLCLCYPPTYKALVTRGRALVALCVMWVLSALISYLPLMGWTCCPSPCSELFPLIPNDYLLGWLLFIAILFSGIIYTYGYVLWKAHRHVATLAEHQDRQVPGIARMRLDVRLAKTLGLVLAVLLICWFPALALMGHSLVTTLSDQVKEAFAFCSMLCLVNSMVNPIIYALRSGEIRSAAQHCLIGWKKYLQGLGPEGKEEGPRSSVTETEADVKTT

One assay has as its target CB1 receptor (Rattus norvegicus, UniProt P20272). Briefly: Radioligand binding assay ([3H]CP-55,940 displacement), rat forebrain membranes as source of CB1. Particulars: read-out: Ki in nM for the CB1 Receptor, 0.8 nM [3H]CP-55,940, Ki from IC50 by Cheng and Prusoff.
For the next assay, the target named is CB2 receptor (Mus musculus, UniProt P47936). Briefly: Radioligand binding assay ([3H]CP-55,940 displacement), mouse spleen as source of CB2. To be noted: read-out: Ki in nM for the CB2 Receptor, Ki from IC50 by Cheng and Prusoff. The method, then: Approximately 30 μg of tissue was incubated in silanized 96 well microtiter plate with TME containing 0.1% essentially fatty acid free bovine serum albumin (BSA), 0.8 nM CH^3]CP-55,940 and various concentrations of the test compound in a final volume of 200 μL. Assays were incubated at 30° C. for 1 hour. The samples were filtered using Packard Filtermate 196 and Whatman GF/C Filterplates and washed with wash buffer (TME) containing 0.5% BSA. Radioactivity was detected using MicroScint 20 scintillation cocktail added directly to the dried filterplates, and the filterplates were counted using a Packard Instruments Top-Count. Nonspecific binding was assessed using 100 nM CP-55,940. Data collected from three independent experiments performed with duplicate determinations were normalized between 100% and 0% specific binding for [H^3]CP-55,940, determined using buffer and 100 nM CP-55,940. The normalized data was analyzed using a 4 parameter nonlinear logistic equation to yield IC50 values. Data from at least two independent experiments performed in duplicate were used to calculate IC50 values which were convered to Ki values using the assumptions of Cheng and Prusoff, Biochem. Pharmacol., 22:3099 (1973), the entire teachings of which are incorporated herein by reference.
Mouse spleen was used a source of CB2 receptors to assess binding affinity of analogs described in this invention. […]

For the compound `CCC1CCC(C)(c2cc(O)c3c(c2)OC(C)(C)[C@@H]2CC=C(C)C[C@@H]32)CC1` (single isomer, unassigned) [AM405], the Ki at CB1 receptor is 19.1 nM.
Take `CC1=CC[C@@H]2[C@@H](C1)c1c(O)cc(C3(C)C4CC5CC(C4)CC3C5)cc1OC2(C)C` (stereo partly drawn): the Ki stood at 40.3 nM on CB2 receptor and 78.2 nM at CB1 receptor.
The corresponding values for `CCCC1CCC(c2cc(O)c3c(c2)OC(C)(C)[C@@H]2CC=C(C)C[C@@H]32)CC1` (stereo partly drawn) are 22.3 nM and 25.8 nM.
On to `CCC1CCC(C)(c2cc(O)c3c(c2)OC(C)(C)[C@@H]2CC=C(C)C[C@@H]32)CC1` (single isomer, unassigned) [AM406], for which the Ki at CB1 receptor was found to be 14.5 nM.
Take `CCCC1CCC(C)(c2cc(O)c3c(c2)OC(C)(C)[C@@H]2CC=C(C)C[C@@H]32)CC1` (single isomer, unassigned) [AM408]: on CB1 receptor, the Ki worked out at 18.3 nM.
Consider `CCCCCCC1(c2cc(O)c3c(c2)OC(C)(C)[C@@H]2CC=C(C)C[C@@H]32)SCCCS1`, for which the Ki on CB1 receptor was found to be 3.6 nM.
Still for that read-out and setting: the value for `CCCC1CCC(C)(c2cc(O)c3c(c2)OC(C)(C)[C@@H]2CC=C(C)C[C@@H]32)CC1` (single isomer, unassigned) [AM407] was 9.1 nM.
